The test system of test [1] is TP53 mutant and wild-type tumor cells. The test can be described thus: Tumor cell proliferation inhibition, CellTiter-Glo luminescent cell viability assay. The conditions noted are these: 0.04-30 µM, 6 days of incubation; result in words, IC50 values only in Figure 1. How it is done:
IC50 values of compound 14 for inhibiting the proliferation of TP53 mutant and wild-type tumor cells. The TP53 mutant and wild-type tumor cells used in this example are all human tumor cell.
Tumor cells were plated in 384-well plates and treated with DMSO or specified concentrations of compound 14 (0.04-30 µM). After 6 days of incubation, chemiluminescence was measured using the CellTiter-Glo luminescent cell viability assay kit (Promega). Curves were fitted using GraphPad Prism software, and IC50 values were calculated.
(In ATP-based viability assays light output follows the ATP content of the culture.)

Amino acid sequences for entries named in this document (tags omitted).
UniProt Q13569, whole entry: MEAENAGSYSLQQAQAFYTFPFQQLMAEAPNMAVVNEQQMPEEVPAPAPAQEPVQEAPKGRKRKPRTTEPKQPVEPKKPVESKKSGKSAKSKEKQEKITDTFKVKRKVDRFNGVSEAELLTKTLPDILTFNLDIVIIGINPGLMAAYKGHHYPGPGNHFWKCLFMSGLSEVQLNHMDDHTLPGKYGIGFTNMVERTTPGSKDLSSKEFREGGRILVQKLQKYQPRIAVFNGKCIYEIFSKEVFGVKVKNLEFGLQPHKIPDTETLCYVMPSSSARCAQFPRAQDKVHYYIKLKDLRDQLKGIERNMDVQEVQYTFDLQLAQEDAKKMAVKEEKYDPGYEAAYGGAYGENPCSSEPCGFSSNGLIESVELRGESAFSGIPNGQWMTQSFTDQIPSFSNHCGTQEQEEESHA

For the next test, the target named is His-tagged TDG protein (Homo sapiens, UniProt Q13569). The test can be described thus: HTRF assay: inhibition of the binding of TDG to double-stranded DNA substrates. To be noted: read-out: Activity, IC50 class, TDG 40 nM, Biotin-labeled dsDNA substrate 40 nM, 4PL fit. As for the experimental part: HTRF (Homogeneous Time-Resolved Fluorescence) technology was used to evaluate the inhibitory effects of the compounds on the binding of TDG to double-stranded DNA substrates.
Microplate reader (manufacturer: Perkin Elmer; model: Envision multilabel reader equipped with HTRF module) and Echo 550 (manufacturer: Labcyte; model: Echo 550).
• 1. Preparation of compound concentration gradient: Test compounds were prepared at a starting concentration of 250 µM, with 3-fold serial dilution, 10 concentrations, and duplicate wells. In a 384-well plate, the compounds were gradient-diluted to 40× final concentration solutions at 10 different concentrations. Then 500 nl was transferred to a 384-well reaction plate using Echo 550 for later use. To the negative control wells and positive control wells, 500 nl of 100% DMSO or Biotin-unlabeled dsDNA substrate was added, respectively. • 2. Add 1.5 µl/well of Epigeneous Binding Domain diluent buffer to the 384-well plate, and centrifuge at 1000 rpm for 1 min. • 3. Add 4 µl of 5× final concentration of His-tagged TDG protein (final concentration 40 nM, diluted with Epigeneous Binding Domain diluent buffer) to the 384-well plate, centrifuge at 1000 rpm for 1 min, and incubate at room temperature for 10 min. • 4. Add 4 µl of 5× final concentration of Biotin-labeled dsDNA substrate (final concentration 40 nM, diluted with Epigeneous Binding Domain diluent buffer) to the 384-well plate, centrifuge at 1000 rpm for 1 min, and incubate at room temperature for 30 min. • 5. Add 5 µl of 4× final concentration of Streptavidin-XL665 (final concentration 5 nM, diluted with Epigeneous Binding Domain Detection buffer) to the 384-well plate, and centrifuge at 1000 rpm for 1 min. • 6. Add 5 µl of 4× final concentration of MAb Anti-6HIS-Eu cryptate Gold (final concentration 0.1 µg/ml, diluted with Epigeneous Binding Domain Detection buffer) to the 384-well plate, and centrifuge at 1000 rpm for 1 min.
Incubate overnight at 4 °C, and read HTRF on the microplate reader.
• 1. Calculation of Ratio value for each well Ratio = Signal 665 nm / Signal 620 nm × 104. • 2. Calculation of delta Ratio value for each well delta Ratio = Ratio standard or sample - Ratio standard 0 (negative control). • 3. IC50 values were fitted using a four-parameter logistic (4PL) curve.

Some results are limits rather than exact numbers.

As usually defined, the IC50 is the point on the concentration scale where inhibition reaches its midpoint.

Turning to `COc1cc(O)c(C)cc1C1OC(=O)C2CC21` (stereo not drawn), in test [1], the “inhibiting the in vitro proliferation of p53 mutant and wild-type tumor cell lines” value is given as “certain inhibitory effects on various tumor cell lines”. In addition, on His-tagged TDG protein, the IC50 lay within 500 to 5000 nM.

Consider `CCc1cc(O)c(C)cc1C1OC(=O)C2CC21` (stereo not drawn), for which the IC50 at His-tagged TDG protein was 500 to 5000 nM. Take `Cn1cc(-c2cc(O)c3ccccc3c2C2CCC(=O)O2)cn1` (stereo not drawn): the IC50 on His-tagged TDG protein is less than 500 nM.

On to `CC(=O)Oc1cc(Br)c(C2OC(=O)C3CC32)c2ccccc12` (stereo not drawn), for which the IC50 at His-tagged TDG protein was less than 500 nM. Regarding `O=C1CCC(c2c(Br)cc(OC(=O)C3CCOCC3)c3ccccc23)O1` (stereo not drawn), on His-tagged TDG protein, the IC50 was less than 500 nM.

As for `COc1cc(O)c(C)c(C)c1C1OC(=O)C2CC21` (stereo not drawn), the IC50 on His-tagged TDG protein is 500 to 5000 nM. On to `N#Cc1cc(O)c2ccccc2c1C1CCC(=O)O1` (stereo not drawn), for which the IC50 at His-tagged TDG protein fell in the range of 500 to 5000 nM. The same measure, in the same setting: then `COc1cc(O)c(CCC(=O)OC(C)C)cc1C1CCC(=O)O1` (stereo not drawn), with 500 to 5000 nM. For `Cc1cc(C2OC(=O)C3CC32)c(-c2cncnc2)cc1O` (stereo not drawn), at His-tagged TDG protein, the IC50 is 5000 to 50000 nM. For the compound `COCCN(C)c1cc(O)c(C)cc1C1CCC(=O)O1` (stereo not drawn), the IC50 at His-tagged TDG protein lay within 500 to 5000 nM. Consider `COCc1c(O)c(C)cc(C2OC(=O)C3CC32)c1OC` (stereo not drawn), for which the IC50 on His-tagged TDG protein is 500 to 5000 nM.

For the origin of these results see patent EP4834898A1, “TDG INHIBITOR COMPOUND AND USE THEREOF” (dated 2026).
